Sampled rows, rich in hits. Any-hit rate of the full collection: about 1.8%.
RAD52 inh: blocks human RAD52 DNA annealing | P43351 | recombinant RAD52 DNA annealing, FRET fluorescence | inhibition, % at 18.7 µM | 360,000 compounds, 0.46% hits | AID 651710;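 active = every replicate showing at least 50% inhibition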
E-sel inducer: E-selectin induction on HUVECs; P16581; HUVEC E-selectin immunofluorescence imaging; normalized: neutral wells 0, TNF-alpha wells 100; 260,000 compounds, 0.37% hits; activation, % at 7.58 µM;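 active = mean E-selectin-positive cell signal at least 10% of the positive control, reached in at least 60% of replicates, without over 20% cell loss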
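System: HUVEC / Compound: single concentration / Signal: immunofluorescence imaging / Read-out: percent E-selectin-positive cells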
SIRT5 block: inhibitors of human sirtuin-5 desuccinylase | Q9NXA8 | Purified SirT5, succinyl-peptide AMC, trypsin-coupled fluorescence | inhibition, % at 15 µM | 330,000 compounds, 1.1% hits | AID 652115; in the data active = inhibition above about 15%
Yeast UUG start: modulators of yeast start codon fidelity, primary screen, whole organism, S. cerevisiae, single point, plate reader; activity score, % at 18.7 µM; actives 0.13% (n = 350,000); S. cerevisiae UUG-firefly luciferase reporter, luminescence/redox ratio;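 active = replicate mean at a twofold rise or more, about +100% in these data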;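 also: firefly luciferase made from a UUG start codon reports start codon fidelity; reporter light over untreated wells divided by growth signal over untreated wells; some hits fall short of that in this replicate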
MLL AF4-AF9 inh: blocks AF4 peptide binding to human AF9. 350,000 compounds, 0.47% hits. AlphaScreen, biotin-AF4 peptide binding to FLAG-AF9. AID 651704. inhibition, % at 10 µM. P42568;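 active = every replicate reaching a set inhibition limit, whatever the replicate mean, cut at about 25% in these data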
RAD54 branch: inhibitors of human RAD54 branch migration; Q92698; RAD54 Holliday junction branch migration, FAM/BHQ fluorescence; inhibition, % at 10.4 µM; 360,000 compounds, 0.14% hits; AID 602329;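 active = mean normalized replicate activity at least 40 and at least half of replicates scoring 40 or more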;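 note: inhibitors cause a drop in the FAM fluorescence signal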
Each line names hits and unclear results; the compound was inactive in the other large screens; ! = repeats disagree.

CN1CC(C(=O)c2ccc(Cl)cc2)C(c2ccccc2)C1 (centres undefined)	SIRT5 block 27 (no result: E-sel inducer, Yeast UUG start, RAD54 branch)
CN1CC(C(=O)c2cccs2)C(c2ccc(Cl)cc2)C1 (centres undefined)	none (no result: E-sel inducer)
C[C@@H]1CN([C@H](C)CO)C(=O)c2c(c3ccccc3n2C)-c2ccccc2CO[C@H]1CN(C)C(=O)Oc1ccccc1	none (no result: Yeast UUG start, RAD54 branch)
COc1ccc(OC(=O)N(C)C[C@H]2OCc3cnnn3CCCC(=O)N([C@@H](C)CO)C[C@H]2C)cc1	SIRT5 block 15!
O=P1(c2ccccc2)Nc2ccccc2N1c1ccccc1 (centres undefined)	MLL AF4-AF9 inh 28 (no result: SIRT5 block)
O=C(Cc1ccccc1)N1CC2(C1)[C@H](c1ccccc1)[C@H](CO)N2Cc1cccc(F)c1	none (no result: Yeast UUG start, RAD54 branch)
O=C1CNC[C@@H]2[C@@H](c3ccc(Br)cc3)[C@H](CO)N12	none (no result: Yeast UUG start, RAD54 branch)
CC=Cc1ccc2n(c1=O)C[C@H]1[C@H](CO)[C@@H](C(=O)OC)[C@@H]2N1S(=O)(=O)c1ccccc1C (mixture of isomers)	RAD52 inh 53 (no result: Yeast UUG start)
COC(=O)[C@@H]1[C@@H](CO)[C@@H]2Cn3c(ccc(-c4ccccc4)c3=O)[C@H]1N2S(=O)(=O)c1ccccc1C	none (no result: Yeast UUG start)
CC=Cc1ccc2n(c1=O)C[C@@H]1[C@@H](CO)[C@H](C(=O)OC)[C@H]2N1S(=O)(=O)c1ccccc1C (mixture of isomers)	RAD52 inh 56 (no result: Yeast UUG start)
COC(=O)[C@@H]1[C@@H](CO)[C@@H]2Cn3c(ccc(-c4ccncc4)c3=O)[C@H]1N2S(=O)(=O)c1ccccc1C	none (no result: Yeast UUG start)
CC(C)CC#Cc1ccc([C@@H]2[C@H](CO)N3CCCCN(C(=O)Cc4ccccn4)C[C@@H]23)cc1	none
COc1ccc(-c2ccc([C@@H]3[C@@H](CO)N4CCCCN(C(=O)Cc5ccccc5)C[C@H]34)cc2)cc1	none (no result: MLL AF4-AF9 inh)
CN1CCN(c2cn[nH]c(=O)c2Cl)CC1	E-sel inducer 46
CN1CCN(c2ccc([N+](=O)[O-])cc2Cl)CC1	none (no result: SIRT5 block, Yeast UUG start, RAD54 branch)
COC(=O)[C@@H]1N[C@@H]2c3ccc(C4=CCCC4)c(=O)n3C[C@@H]2[C@H]1CO	none (no result: Yeast UUG start)
O=C1NC(=S)N(c2ccccc2)C(=O)/C1=C/c1ccco1	SIRT5 block 38 (no result: E-sel inducer)
CCOc1cccc(N2C(=O)/C(=C/c3ccco3)C(=O)NC2=S)c1	SIRT5 block 36 (no result: E-sel inducer)
COc1ccccc1/C=C1\C(=O)NC(=S)N(c2ccccc2)C1=O	none
COC(=O)C1=C(c2cccc(OCc3ccccc3)c2)C[C@@H]2CC[C@H]1N2C(=O)NCCCOC(C)C	SIRT5 block 27
O=C(Cc1ccccc1)N1CCCCN2[C@@H](CO)[C@H](c3ccc(-c4ccccc4)cc3)[C@@H]2C1	none
C/C=C/c1ccc(C2[C@@H]3CN(Cc4cccnc4)C[C@H]2N3)cc1 (some centres undefined)	RAD52 inh 58 (no result: Yeast UUG start, RAD54 branch)
C/C=C/c1ccc(C2[C@@H]3CN(Cc4cccc(F)c4)C[C@H]2N3)cc1 (some centres undefined)	none (no result: Yeast UUG start, RAD54 branch)
Cc1ccc(-c2nc3ccccc3c(=O)n2-c2cccc(O)c2)cc1	E-sel inducer 164 (no result: Yeast UUG start, RAD54 branch)
O=C(Cc1ccccn1)N1CC2(C1)[C@@H](c1ccccc1)[C@@H](CO)N2Cc1ccccn1	none (no result: Yeast UUG start, RAD54 branch)
CCOP(=O)(OCC)C(NC(=O)c1ccccc1)=C(Cl)Cl	none (no result: E-sel inducer, Yeast UUG start, RAD54 branch)
CCOC(=O)C1=C(NC(=S)NC(=O)c2ccccc2)c2ccccc2CC12CCCC2	SIRT5 block 35 (no result: E-sel inducer, Yeast UUG start, RAD54 branch)
O=C(Cc1cccnc1)N1CCCCN2[C@H](CO)[C@@H](c3ccc(C#CC4CC4)cc3)[C@@H]2C1	none (no result: E-sel inducer)
O=C(N/N=C/c1c(O)n(CCc2ccccc2)c(=O)[nH]c1=O)c1ccccc1O	SIRT5 block 38 (no result: Yeast UUG start, RAD54 branch)
O=C(N/N=C/c1c(O)n(Cc2ccccc2)c(=O)[nH]c1=O)c1ccccc1O	none (no result: RAD52 inh, SIRT5 block, Yeast UUG start, MLL AF4-AF9 inh, RAD54 branch)
COc1cc2c(cc1O)C[C@H]1NCCc3cc4c(c-2c31)OCO4	RAD52 inh 89
COC(=O)[C@H]1[C@H](CO)[C@H]2Cn3c(ccc(-c4cccnc4)c3=O)[C@@H]1N2CCc1ccccc1	none (no result: Yeast UUG start)
CC=Cc1ccc2n(c1=O)C[C@@H]1[C@@H](CO)[C@H](C(=O)N(C)C)N[C@H]21 (mixture of isomers)	none (no result: Yeast UUG start)
CN(C)c1ccc(/C=C2/C(=O)NC(=O)N(Cc3ccco3)C2=O)cc1	SIRT5 block 31 (no result: E-sel inducer)
COc1ccc(/C=C2/C(=O)N(Cc3ccco3)C(=O)N(C(C)C)C2=O)cc1	SIRT5 block 25 (no result: E-sel inducer, Yeast UUG start, RAD54 branch)
CC(C)N1C(=O)/C(=C/C=C/c2ccco2)C(=O)N(Cc2ccco2)C1=O	none (no result: RAD52 inh, E-sel inducer, SIRT5 block, MLL AF4-AF9 inh)
Brc1ccc2[nH]cc(/C=N/N3CCCCC3)c2c1	MLL AF4-AF9 inh 26 (no result: E-sel inducer, Yeast UUG start, RAD54 branch)
NC(N)=Nc1ccc2[nH]c3c(c2c1)C[C@@]1(O)[C@H]2Cc4ccc(O)c5c4[C@@]1(CCN2CC1CC1)[C@H]3O5	RAD54 branch 54 (no result: RAD52 inh, E-sel inducer, SIRT5 block, MLL AF4-AF9 inh)
O=C1CC[C@@]2(O)[C@H]3Cc4ccc(O)c5c4[C@@]2(CCN3CC2CC2)C1O5 (some centres undefined)	none (no result: E-sel inducer, SIRT5 block, Yeast UUG start, MLL AF4-AF9 inh, RAD54 branch)
Cc1ccccc1NC(=NCCCN1CC1)Nc1ccccc1C	MLL AF4-AF9 inh 78 (no result: E-sel inducer, Yeast UUG start, RAD54 branch)
CC(C)CC#Cc1ccc([C@H]2[C@@H](CO)N3CCCCN(C(=O)Cc4ccccn4)C[C@H]23)cc1	none
CC12Cc3cn[nH]c3C=C1CCC1C2CCC2(C)C1CCC2(C)O (centres undefined)	SIRT5 block 35
COc1ccc(-n2c(/C=C/c3ccc4c(c3)OCO4)nc3ccccc3c2=O)cc1	SIRT5 block 32 (no result: Yeast UUG start, RAD54 branch)
O=C(Cc1cccnc1)N1CCCCN2[C@@H](CO)[C@@H](c3ccc(/C=C/c4ccccc4)cc3)[C@@H]2C1	none
COc1cccc(-c2ccc([C@@H]3[C@H]4CN(C(=O)Cc5ccncc5)CCCCN4[C@H]3CO)cc2)c1	none (no result: MLL AF4-AF9 inh)
O=C(O)[C@@H]1[C@@H](CO)[C@@H]2Cn3c(ccc(C4=CCCCC4)c3=O)[C@H]1N2CCc1ccccc1	none (no result: RAD52 inh, SIRT5 block, Yeast UUG start, RAD54 branch)
CCOc1cccc(CNCCc2c(C)[nH]c3ccc(OC(F)(F)F)cc23)c1O	MLL AF4-AF9 inh 40
CN(C)[C@@H]1C(=O)C(C(N)=O)=C(O)[C@@]2(O)C(=O)C3=C(O)c4c(O)cccc4[C@@](C)(O)[C@H]3[C@H](O)[C@@H]12	SIRT5 block 41
CN(C)[C@@H]1C(=O)C(C(N)=O)=C(O)[C@@]2(O)C(=O)C3=C(O)c4c(O)cccc4[C@@](C)(O)C3C[C@@H]12 (some centres undefined)	SIRT5 block 20
O=C(O)[C@@H]1[C@@H](CO)[C@@H]2Cn3c(ccc(-c4ccncc4)c3=O)[C@H]1N2C(=O)C1CCCC1	none (no result: Yeast UUG start, RAD54 branch)
COC(=O)[C@@H]1[C@@H](CO)[C@@H]2Cn3c(ccc(-c4ccccc4F)c3=O)[C@H]1N2C(=O)C1CC1	none (no result: Yeast UUG start)
O=C1NC(=S)NC(=O)C1=Cc1cccn1-c1ccc(O)cc1	SIRT5 block 53 (no result: E-sel inducer, Yeast UUG start, RAD54 branch)
CCN1C(=O)C(=C/C=C/c2ccco2)C(=O)N(CC)C1=S	SIRT5 block 21 (no result: E-sel inducer, Yeast UUG start, RAD54 branch)
c1ccc2c(c1)-c1cccc3cccc-2c13	none (no result: E-sel inducer)

Screening results (PubChem)
